Test results taken from paper PMC3711766 (The Journal of neuroscience : the official journal of the …, 2013).

Chains of the proteins cited; added tags and fusions are not shown.
UniProt P42866, whole entry: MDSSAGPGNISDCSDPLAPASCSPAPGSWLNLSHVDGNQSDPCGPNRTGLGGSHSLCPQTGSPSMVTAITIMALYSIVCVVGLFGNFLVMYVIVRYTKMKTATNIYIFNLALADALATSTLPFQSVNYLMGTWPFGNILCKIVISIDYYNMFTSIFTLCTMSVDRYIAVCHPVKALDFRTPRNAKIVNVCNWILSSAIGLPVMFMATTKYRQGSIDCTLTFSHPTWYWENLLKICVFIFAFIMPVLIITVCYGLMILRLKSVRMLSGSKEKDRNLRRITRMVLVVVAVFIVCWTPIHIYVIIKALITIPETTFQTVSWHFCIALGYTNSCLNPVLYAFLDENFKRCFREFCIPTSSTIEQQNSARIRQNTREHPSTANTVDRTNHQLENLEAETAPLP

Assays:
[1] = biological target: T1, FLAG-MOR (Mus musculus, UniProt P42866); type: binding
[2] = biological target: T1, FLAG-MOR; assay: Whole cell [3H] DAMGO binding in live FLAG-MOR HEK 293 cells; conditions: 12 nM; for specifically bound [3H] DAMGO: 10 min

Substance	fraction derm A594 remaining after 3 min [1]	specifically bound [3H] DAMGO ([2]; cells pretreated with ME 30 µM 2 hrs + Con A)	specifically bound [3H] DAMGO ([2]; naïve cells)	increase in [3H] DAMGO binding after modulation by ME ([2]; ME 30 µM 2 hrs vs naïve)
endomorphin 2 [enodmorphin 2]	0.45±0.02			
[^3H] DAMGO		397.7± 32.6 fmol [^3H] DAMGO bound/mg protein	91.3±2.3 fmol [^3H] DAMGO bound/mg protein	335%
